Source: patent EP4653445A1, “CDK INHIBITOR AND CRYSTAL FORM OF PHARMACEUTICALLY ACCEPTABLE SALT THEREOF, AND USE THEREOF” (CSPC Zhongqi Pharmaceutical Technology (Shijiazhuang) Co., …, priority 2023, dated 2024)
Where a name gives a salt, the structure may show the parent alone.

Test: Solubility comparison in water, SGF, FaSSIF and FeSSIF (HPLC of filtrates, XRPD of filter cakes)
Conditions: for Solubility - 0.5 h / Solubility -2 h / Solubility -24 h: 37°C; for XRPD-24h: filter cake
[1] = FaSSIF*, HPLC of supernatant after centrifugation
[2] = FeSSIF, listed as crystalline form C of benzenesulfonate of compound A
[3] = Water, listed as crystalline form C of benzenesulfonate of compound A

With `CC(=O)c1c(C)c2cnc(Nc3ccc4c(c3)OC[C@@H]3CN(C5CCN(C)CC5)CCN43)nc2n(C2CCCC2)c1=O` [crystalline form C of the benzenesulfonate of compound A] the “Solubility - 0.5 h” value (FaSSIF*, HPLC of supernatant after centrifugation (particle breakthrough on filtration)) was 40 µg/mL, the “Solubility -2 h” value [1] was 60 µg/mL and the “Solubility -24 h” value [1] was 180 µg/mL. For the same compound, the XRPD-24h (FaSSIF) was “transformed to the crystalline form I of the hydrochloride salt”, the XRPD-24h (FaSSIF, listed as crystalline form C of benzenesulfonate of compound A) was “transformation to crystalline form B of the hydrochloride salt after 0.5 h” and the “Solubility - 0.5 h” value [2] was 1430 µg/mL. The “Solubility -24 h” value [2] was 1370 µg/mL, the XRPD-24h (FeSSIF) was “became viscous” and the XRPD-24h [2] was “Viscous solid”. The “Solubility - 0.5 h” value (SGF) was greater than 5000 µg/mL, the “Solubility -2 h” value (SGF) was greater than 5000 µg/mL and the “Solubility -24 h” value (SGF) was greater than 5000 µg/mL. For the same compound, the “Solubility - 0.5 h” value [3] was 3770 µg/mL, the “Solubility -24 h” value (Water) was “greater than 5 mg/mL” and the XRPD-24h [3] was “Clear”.
In the case of `CC(=O)c1c(C)c2cnc(Nc3ccc4c(c3)OC[C@@H]3CN(C5CCN(C)CC5)CCN43)nc2n(C2CCCC2)c1=O` [Compound A], the XRPD-24h (FeSSIF) is reported as “became viscous”.
With `CC(=O)c1c(C)c2cnc(Nc3ccc4c(c3)OC[C@@H]3CN(C5CCN(C)CC5)CCN43)nc2n(C2CCCC2)c1=O` [crystalline form B of the hydrochloride salt of compound A] the “Solubility - 0.5 h” value (FaSSIF, listed as crystalline form B of hydrochloride monohydrate of compound A, 30 min) was 240 µg/mL, the XRPD-24h (FaSSIF) was “Unchanged” and the “Solubility - 0.5 h” value (FeSSIF, listed as crystalline form B of hydrochloride monohydrate of compound A, 30 min) was 1630 µg/mL. The XRPD-24h (FeSSIF, listed as crystalline form B of hydrochloride monohydrate of compound A) was “Unchanged”, the “Solubility - 0.5 h” value (Water, listed as crystalline form B of hydrochloride monohydrate of compound A, 30 min) was 3320 µg/mL and the “Solubility -24 h” value (Water, listed as crystalline form B of hydrochloride monohydrate of compound A, 1440 min) was 3450 µg/mL. The XRPD-24h (Water) was “Unchanged”.
